Several values for one entry are separate records, joined by “and”; a condition that tells them apart may be missing. Identical values can stand only once.
Tests used:
COX-2 [1] = target: T1, COX-2 (Homo sapiens, UniProt P35354); assay: Assay for COX-1 and COX-2 Activity (PGE2 ELISA): COX-2; conditions: read-out: hCox-2 IC50; human COX-2; standard assay
COX-2 [2] = target: T1, COX-2; assay: Modified Assay for COX-1 and COX-2 Activity (PGE2 ELISA): COX-2; conditions: read-out: hCox-2 Modified IC50, human COX-2

Chains of the proteins cited; added tags and fusions are not shown. Residues count along the entry.
UniProt P35354, 18-604 limits assumed: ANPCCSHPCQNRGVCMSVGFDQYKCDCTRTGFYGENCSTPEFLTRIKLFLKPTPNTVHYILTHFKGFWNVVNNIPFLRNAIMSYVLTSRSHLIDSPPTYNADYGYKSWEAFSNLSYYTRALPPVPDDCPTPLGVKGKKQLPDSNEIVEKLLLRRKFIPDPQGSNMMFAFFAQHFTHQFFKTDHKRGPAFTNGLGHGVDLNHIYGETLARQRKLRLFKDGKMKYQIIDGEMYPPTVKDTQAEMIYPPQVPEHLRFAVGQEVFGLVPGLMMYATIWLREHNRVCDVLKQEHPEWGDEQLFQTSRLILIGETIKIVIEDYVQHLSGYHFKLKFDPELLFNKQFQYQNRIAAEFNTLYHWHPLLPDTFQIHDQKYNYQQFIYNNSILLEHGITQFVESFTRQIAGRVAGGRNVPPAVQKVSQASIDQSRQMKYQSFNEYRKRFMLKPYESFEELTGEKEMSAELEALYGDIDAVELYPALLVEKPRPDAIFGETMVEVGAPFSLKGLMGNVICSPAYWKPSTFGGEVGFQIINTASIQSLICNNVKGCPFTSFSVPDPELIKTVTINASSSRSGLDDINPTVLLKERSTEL

SMILES	IC50 (COX-2 [1])	IC50 (COX-2 [2])
O=C(O)C1=Cc2cc(-c3cccc4cccnc34)ccc2OC1C(F)(F)F (stereo not shown)	5.47 µM and 3.55 µM	–
O=C(O)C1=Cc2cc(-c3ccsc3)ccc2OC1C(F)(F)F (stereo not shown)	> 100 µM	–
O=C(O)C1=Cc2cc(-c3ccc(F)cc3)cc(Cl)c2OC1C(F)(F)F (stereo not shown)	23 µM	16.3 µM
O=C(O)C1=Cc2cc(-c3ccco3)cc(Cl)c2OC1C(F)(F)F (stereo not shown)	65.8 µM	23.4 µM
O=C(O)C1=Cc2cc(-c3ccc4ccccc4c3)ccc2OC1C(F)(F)F (stereo not shown)	3.59 µM and 2.14 µM	–
O=C(O)C1=Cc2c(Oc3ccccc3)cccc2OC1C(F)(F)F (stereo not shown)	0.316 µM and 0.405 µM	0.236 µM and 0.203 µM
O=C(O)C1=Cc2cc(-c3ccco3)ccc2OC1C(F)(F)F (stereo not shown)	> 100 µM	32.2 µM and 60.4 µM
Cc1ccc(Oc2cc3c(cc2Cl)C=C(C(=O)O)C(C(F)(F)F)O3)c(F)c1 (stereo not shown)	< 0.137 µM	< 0.137 µM
O=C(O)C1=Cc2cc(-c3ccsc3)cc(Cl)c2OC1C(F)(F)F (stereo not shown)	> 100 µM	37.3 µM
COc1ccc(-c2ccc3c(c2)C=C(C(=O)O)C(C(F)(F)F)O3)cc1OC (stereo not shown)	–	5.99 µM and > 11.1 µM
O=C(O)C1=Cc2cc(-c3ccccc3)cc(Cl)c2OC1C(F)(F)F (stereo not shown)	> 100 µM	52.9 µM
CC(C)c1cccc(-c2ccc3c(c2)C=C(C(=O)O)C(C(F)(F)F)O3)c1 (stereo not shown)	0.377 µM	0.382 µM
Cc1csc(-c2ccc3c(c2)C=C(C(=O)O)C(C(F)(F)F)O3)c1 (stereo not shown)	–	7.47 µM
O=C(O)C1=Cc2cc(-c3ccc4cc[nH]c4c3)ccc2OC1C(F)(F)F (stereo not shown)	13 µM	9.28 µM
Cc1ccc(-c2ccc3c(c2)C=C(C(=O)O)C(C(F)(F)F)O3)cc1 (stereo not shown)	14.4 µM	2.8 µM
Cc1cc(Cl)c(Oc2c(Cl)cc(Cl)c3c2C=C(C(=O)O)C(C(F)(F)F)O3)cc1C (stereo not shown)	≥ 100 µM	–
O=C(O)C1=Cc2ccc(Oc3ccc(Br)cc3Br)cc2OC1C(F)(F)F (stereo not shown)	0.849 µM	0.192 µM
